Reference: ChEMBL document CHEMBL1129727, “Chiral pyrrolo[2,3-d]pyrimidine and pyrimido[4,5-b]indole derivatives: structure-activity relationships of potent, highly stereoselective A1-adenosine receptor antagonists” (J Med Chem, 1996)

The chains behind the UniProt entries cited, without tags or fusion partners. Where a name states a change or a piece, a line headed by the entry shows the natural chain unless it says otherwise.
UniProt P29276: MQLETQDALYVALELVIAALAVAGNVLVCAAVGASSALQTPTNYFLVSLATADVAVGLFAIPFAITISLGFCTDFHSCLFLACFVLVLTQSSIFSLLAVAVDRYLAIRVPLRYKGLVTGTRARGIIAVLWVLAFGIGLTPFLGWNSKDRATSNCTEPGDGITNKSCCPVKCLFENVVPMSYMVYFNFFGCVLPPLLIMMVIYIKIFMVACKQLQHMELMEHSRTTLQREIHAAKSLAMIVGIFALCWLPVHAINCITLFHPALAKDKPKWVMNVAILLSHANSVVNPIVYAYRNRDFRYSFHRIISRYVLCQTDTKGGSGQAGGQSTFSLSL
UniProt P25099, whole entry, looked up: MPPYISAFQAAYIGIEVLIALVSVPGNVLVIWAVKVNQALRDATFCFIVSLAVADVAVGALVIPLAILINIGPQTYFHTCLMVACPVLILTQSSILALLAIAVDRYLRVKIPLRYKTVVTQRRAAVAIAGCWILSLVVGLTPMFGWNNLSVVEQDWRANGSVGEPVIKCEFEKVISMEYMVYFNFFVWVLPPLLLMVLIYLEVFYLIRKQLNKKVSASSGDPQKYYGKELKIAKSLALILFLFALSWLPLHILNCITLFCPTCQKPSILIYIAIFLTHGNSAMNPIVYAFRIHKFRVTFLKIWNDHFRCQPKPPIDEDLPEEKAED
UniProt P30543, whole entry, looked up: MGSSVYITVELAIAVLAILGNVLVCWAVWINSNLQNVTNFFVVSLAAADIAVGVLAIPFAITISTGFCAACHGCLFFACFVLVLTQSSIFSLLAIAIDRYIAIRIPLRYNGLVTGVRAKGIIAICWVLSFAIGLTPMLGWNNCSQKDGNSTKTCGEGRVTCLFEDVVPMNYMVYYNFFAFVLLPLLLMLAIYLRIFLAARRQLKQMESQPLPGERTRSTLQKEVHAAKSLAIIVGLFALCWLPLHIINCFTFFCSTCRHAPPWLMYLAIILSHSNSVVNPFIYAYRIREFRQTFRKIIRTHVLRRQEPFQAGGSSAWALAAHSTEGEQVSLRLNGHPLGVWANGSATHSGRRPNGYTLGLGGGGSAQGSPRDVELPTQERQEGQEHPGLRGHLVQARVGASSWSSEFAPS

Target: Adenosine receptors; A1 & A2 (Rattus norvegicus) (UniProt P29276+P25099+P30543)
Assay: Selectivity ratio between A1 and A2-receptors estimated as A2/A1
Format: protein assay

| Compound | Selectivity ratio |
| --- | --- |
| C[C@@H](c1ccccc1)n1c2ccccc2c2c(N)nc(-c3ccccc3)nc21 | > 469 |
| C[C@H](c1ccccc1)n1c2ccccc2c2c(N)nc(-c3ccccc3)nc21 | 2380 |
